T1: human IL-17A dimer (human, UniProt Q16552 24-155)
T1 construct: also called hIL17-A
T1 sequence (looked up): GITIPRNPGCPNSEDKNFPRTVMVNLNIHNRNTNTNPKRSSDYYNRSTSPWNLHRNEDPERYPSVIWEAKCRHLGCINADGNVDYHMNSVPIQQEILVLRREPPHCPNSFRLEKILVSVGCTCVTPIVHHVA


Key:
human IL-17A dimer [1] = molecular target: T1, human IL-17A dimer; test: FP competition, competitor: tracer BCY2311
Procedure: (§1) Affinity determination by fluorescence polarization (FP) competition. Bicycles were screened to determine affinity (Ki) in a fluorescence polarisation assay where in competition with a bicycle labelled with fluorescein (referred to as tracer) with a known affinity for IL-17A. Peptides were diluted to an appropriate concentration in assay buffer (PBS+0.01% Tween20, adjusted to pH7.4 using NaOH (1M)) with a maximum of 1% DMSO, then serially diluted 1 in 2 into assay buffer. Into black 384-well low volume plates, 5 µL of diluted peptide was added to the plate followed by 10 μL of IL-17A (75 nM) then 10 μL tracer added to a final concentration of 1 nM. Measurements were conducted on a BMG PHERAstar FS equipped with an “FP 485 520 520” optic module which excites at 485 nm and detects parallel and perpendicular emission at 520 nm. The PHERAstar FS was set at 25° C. with 200 flashes per well and a positioning delay of 0.1 second, with each well measured at 5 to 10 minute intervals for 60 minutes. The gain used for measurements was determined at the point of experiment on a tracer alone well. Data analysis was performed in Dotmatics where mP values were fit to the Cheng Prusoff equation in order to generate a Ki value.
(§2) Selected peptide ligands of the invention were tested in the above mentioned human FP competition assay and the results are shown in Table 3: […]

human IL-17A dimer [2] = molecular target: T1, human IL-17A dimer; test: FP competition, competitor: tracer BCY2311; Ki Mean column, n=2
Procedure: as §1, §2

human IL-17A dimer [3] = molecular target: T1, human IL-17A dimer; test: FP competition, competitor: tracer BCY2315
Procedure: as §1, §2

| Binder | Ki (human IL-17A dimer [1]) | Ki (human IL-17A dimer [2]) | Ki (human IL-17A dimer [3]) |
| --- | --- | --- | --- |
| CPNELYCFVTGNC (Ci, Cii and Ciii cyclised with TBMB; N-terminal acetyl (Ac), Bicyclic peptide) [BCY2294] | 1030 nM | 1020 nM | – |
| CPNELYCFVAGNC (Ci, Cii and Ciii cyclised with TBMB; N-terminal acetyl (Ac), Bicyclic peptide) [BCY2302] | 1920 nM | 1880 nM | – |
| CANELYCFVTGNC (Ci, Cii and Ciii cyclised with TBMB; N-terminal acetyl (Ac), Bicyclic peptide) [BCY2295] | 694 nM | 694 nM | – |
| CPNELYCFVTGAC (Ci, Cii and Ciii cyclised with TBMB; N-terminal acetyl (Ac), Bicyclic peptide) [BCY2304] | 366 nM | 365 nM | – |
| CPNELACFVTGNC (Ci, Cii and Ciii cyclised with TBMB; N-terminal acetyl (Ac), Bicyclic peptide) [BCY2299] | 3350 nM | 3350 nM | – |
| ACPENELYCFLSSQQCA (Ci, Cii and Ciii cyclised with TBMB, Bicyclic peptide) [BCY2231] | 1500 nM | – | – |
| ACATDPELCRFLNLDCA (Ci, Cii and Ciii cyclised with TBMB, Bicyclic peptide) [BCY2279] | 244 nM | – | – |
| ACDTDPELCMFLNLDCA (Ci, Cii and Ciii cyclised with TBMB, Bicyclic peptide) [BCY2285] | 576 nM | – | – |
| ACDGDPELCRFLNLDCA (Ci, Cii and Ciii cyclised with TBMB, Bicyclic peptide) [BCY2284] | 261 nM | – | – |
| CYEDELCEFLGLC (Ci, Cii and Ciii cyclised with TBMB; N-terminal acetyl (Ac), Bicyclic peptide) [BCY2236] | 57.4 nM | 56.3 nM | – |
| CYEDALCEFLGLC (Ci, Cii and Ciii cyclised with TBMB; N-terminal acetyl (Ac), Bicyclic peptide) [BCY2241] | 278 nM | – | – |
| CYEDELCEFLNLC (Ci, Cii and Ciii cyclised with TBMB; N-terminal acetyl (Ac), Bicyclic peptide) [BCY2250] | – | – | 113 nM |
| ACDDELYCFLNASCA (Ci, Cii and Ciii cyclised with TBMB, Bicyclic peptide) [BCY2292] | 571 nM | – | – |

Other lines, results leading:

| Ki (human IL-17A dimer [1]) | Ki (human IL-17A dimer [2]) | Ki (human IL-17A dimer [3]) | Binder |
| --- | --- | --- | --- |
| 213 nM | – | – | ACPDLELCEFLGLCA (Ci, Cii and Ciii cyclised with TBMB, Bicyclic peptide) [BCY2262] |
| 78.7 nM | 78.4 nM | – | ACPDDELYCFLTGQHCA (Ci, Cii and Ciii cyclised with TBMB, Bicyclic peptide) [BCY2269] |
| 188 nM | – | – | ACAEDELYCFLTNHTCA (Ci, Cii and Ciii cyclised with TBMB, Bicyclic peptide) [BCY2268] |
| 68.8 nM | 67.5 nM | 38.7 nM | ACPDDELYCFLTGVPCA (Ci, Cii and Ciii cyclised with TBMB, Bicyclic peptide) [BCY2270] |
| 112 nM | – | – | ACQTDPELCRFLNLDCA (Ci, Cii and Ciii cyclised with TBMB, Bicyclic peptide) [BCY2280] |
| 43.5 nM | – | – | ACDHDPELCRFLNLDCA (Ci, Cii and Ciii cyclised with TBMB, Bicyclic peptide) [BCY2282] |
| 95.2 nM | – | – | ACDTDPELCRFLNLPCA (Ci, Cii and Ciii cyclised with TBMB, Bicyclic peptide) [BCY2290] |
| 88.5 nM | 88.3 nM | – | ACDADPELCRFLNLDCA (Ci, Cii and Ciii cyclised with TBMB, Bicyclic peptide) [BCY2283] |
| 81.9 nM | – | – | ACDTDPELCRFLRLDCA (Ci, Cii and Ciii cyclised with TBMB, Bicyclic peptide) [BCY2287] |
| 153 nM | – | – | ACDTDPELCRFLNVDCA (Ci, Cii and Ciii cyclised with TBMB, Bicyclic peptide) [BCY2288] |
| 108 nM | – | – | ACDTDPELCRFLNLKCA (Ci, Cii and Ciii cyclised with TBMB, Bicyclic peptide) [BCY2289] |
| 51.5 nM | 50.8 nM | 35.8 nM | ACDTDVELCKFLGLDCA (Ci, Cii and Ciii cyclised with TBMB, Bicyclic peptide) [BCY2274] |
| 84.6 nM | 84.4 nM | – | ACGTDPELCAFLGVDCA (Ci, Cii and Ciii cyclised with TBMB, Bicyclic peptide) [BCY2277] |
| 110 nM | – | – | CAEDELCEFLGLC (Ci, Cii and Ciii cyclised with TBMB; N-terminal acetyl (Ac), Bicyclic peptide) [BCY2237] |
| 241 nM | – | 60.6 nM | CYEDELCEFLALC (Ci, Cii and Ciii cyclised with TBMB; N-terminal acetyl (Ac), Bicyclic peptide) [BCY2248] |
| 62.9 nM | – | – | CYSDELCEFLGLC (Ci, Cii and Ciii cyclised with TBMB; N-terminal acetyl (Ac), Bicyclic peptide) [BCY2238] |
| 38.4 nM | 38.3 nM | 29.1 nM | ACDTDPELCSFLGIACA (Ci, Cii and Ciii cyclised with TBMB, Bicyclic peptide) [BCY2275] |
| 165 nM | – | – | ACPDDELYCFLTGFKCA (Ci, Cii and Ciii cyclised with TBMB, Bicyclic peptide) [BCY2266] |
| 46.1 nM | 45.4 nM | 24.4 nM | ACEGDPELCRFLGLECA (Ci, Cii and Ciii cyclised with TBMB, Bicyclic peptide) [BCY2276] |

— patent US20220024983A1, “BICYCLIC PEPTIDE LIGANDS SPECIFIC FOR IL-17” (BicycleRD Limited, priority 2018, published 2022)
